## Reported properties for industrial, environmental and drug-like chemicals

The melting point is given in degrees Celsius. The boiling point refers to atmospheric pressure (760 mmHg), by the definition of the set. The octanol-water partition coefficient is given as log10; larger values mean a more lipophilic compound. Solubility in water is on a log10 molar scale (set defined at 25 °C). Vapor pressures (log10 mmHg) refer to near room temperature, 15 to 30 °C; higher is more volatile. fu is the fraction unbound in human plasma, from 0 to 1.

The entry for C/C=C(C)\C=C\C=C(C)C lists logP (octanol/water) 4.71 and log solubility -4.162 (log10 mol/L) and log vapor pressure -0.099 (log10 mmHg).
The entry for CCOC(=O)COC(=O)c1ccccc1C(=O)OCC lists logP (octanol/water) 2.2 and log solubility -2.606 (log10 mol/L) and log vapor pressure -5.103 (log10 mmHg).
The entry for C#CC(C)(O)CCC=C(C)C (stereo not drawn) lists melting point -72 °C and logP (octanol/water) 2.61 and log solubility -1.772 (log10 mol/L) and log vapor pressure -1.545 (log10 mmHg).
The entry for CCCCCCCCCc1cc(CN(CCO)CCO)c(O)c(CN(CCO)CCO)c1 lists logP (octanol/water) 3.95 and log solubility -2.886 (log10 mol/L) and log vapor pressure -9.42 (log10 mmHg).
The entry for CCOc1ncc(C)c2c1C(c1ccc(C#N)cc1OC)C(C(N)=O)=C(C)N2 (stereo not drawn) lists melting point 224.4 °C and log solubility -4.316 (log10 mol/L).
The entry for CCC(Cc1ccccc1)(C(=O)c1ccc(N2CCOCC2)cc1)N(C)C (stereo not drawn) lists logP (octanol/water) 2.91 and log solubility -4.793 (log10 mol/L) and log vapor pressure -8.236 (log10 mmHg).
The entry for COc1ccc(Cl)cc1P(c1cc(Cl)ccc1OC)c1cc(Cl)ccc1OC lists log solubility -8.667 (log10 mol/L) and log vapor pressure -11.53 (log10 mmHg).
The entry for CCOC(=O)C(C#N)C(C)=O (stereo not drawn) lists melting point 16.1 °C and logP (octanol/water) 0.95.
The entry for NNc1ccc(Cl)cc1 lists melting point 90 °C and logP (octanol/water) 1.4 and log vapor pressure -3.378 (log10 mmHg).
The entry for NC(=O)N[C@@H](CC(=O)O)C(=O)O lists melting point 174.5 °C and log solubility -1.678 (log10 mol/L).
The entry for CCCC(C)=NO[Si](ON=C(C)CCC)(ON=C(C)CCC)c1ccccc1 lists melting point -21.5 °C and boiling point 237.9 °C and logP (octanol/water) 1.25 and log vapor pressure -5.714 (log10 mmHg).
The entry for C=C(C)C(=O)OCC1CCC2OC2C1 (stereo not drawn) lists logP (octanol/water) 2.4 and log solubility -1.768 (log10 mol/L).
The entry for COc1cc(OC)nc(NC(=O)NS(=O)(=O)Nc2ccccc2C(=O)N(C)C)n1 lists logP (octanol/water) 1.665 and log solubility -2.83 (log10 mol/L) and log vapor pressure -6.068 (log10 mmHg).
The entry for CN(C)Cc1ccccc1Cl lists boiling point 217 °C and logP (octanol/water) 2.7 and log solubility -1.849 (log10 mol/L) and log vapor pressure -0.701 (log10 mmHg).
The entry for Cc1ccc(S(=O)(=O)c2ccc(O)c(O)c2)cc1 lists melting point 180.4 °C and logP (octanol/water) 1.47 and log solubility -3.503 (log10 mol/L) and log vapor pressure -9.678 (log10 mmHg).
The entry for CC(C)[C@H]1CC=C(CCC=O)CC1 lists logP (octanol/water) 4.3 and log solubility -3.718 (log10 mol/L) and log vapor pressure -1.016 (log10 mmHg).
The entry for O=[N+]([O-])c1ccc(Nc2ccc(Nc3ccccc3)c(S(=O)(=O)[O-])c2)c([N+](=O)[O-])c1.[Na+] lists logP (octanol/water) -0.4 and log solubility -2.199 (log10 mol/L).
The entry for NC(=O)NCCCCCC(=O)O lists melting point 176 °C and log solubility -2.16 (log10 mol/L).
The entry for CCOP(=O)([O-])Cc1cc(C(C)(C)C)c(O)c(C(C)(C)C)c1.CCOP(=O)([O-])Cc1cc(C(C)(C)C)c(O)c(C(C)(C)C)c1.[Ca+2] lists logP (octanol/water) -0.1 and log solubility -2.462 (log10 mol/L) and log vapor pressure -15.1 (log10 mmHg).
The entry for CCCCCCCC(=O)c1ccc(O)c(C(=O)O)c1 lists melting point 115 °C and log solubility -3.949 (log10 mol/L).
The entry for CC1=NN(c2cc(S(=O)(=O)[O-])ccc2Cl)C(=O)C1/N=N/c1cc(Cl)ccc1Oc1ccccc1Cl.[Na+] (stereo partly drawn) lists logP (octanol/water) 0.796 and log solubility -2.316 (log10 mol/L).
The entry for CN(C)CCCNCCCN(C)C lists boiling point 229.9 °C and log vapor pressure -0.648 (log10 mmHg).
The entry for CNC(C)C lists melting point -78.12 °C and logP (octanol/water) 0.52 and log vapor pressure 2.45 (log10 mmHg).
The entry for CCCCCCCCC(CCCCCC)COc1ccccc1C(N)=O (stereo not drawn) lists melting point 63 °C and log solubility -7.78 (log10 mol/L).
The entry for COC(=O)C(C)(C)C#N lists melting point -8 °C and log vapor pressure -0.243 (log10 mmHg).
The entry for C=CC(=O)NCC(OC)OC lists melting point -38 °C and logP (octanol/water) -0.3 and log vapor pressure -2.952 (log10 mmHg).
The entry for CNC(=O)[C@@H](NC(=O)[C@H](CC(C)C)[C@H](O)C(=O)NO)C(C)(C)C lists logP (octanol/water) 0.4 and log solubility -1.991 (log10 mol/L).
The entry for CC(=O)C=CC=C(C)CCC=C(C)C lists logP (octanol/water) 4.1 and log solubility -3.297 (log10 mol/L) and log vapor pressure -2.843 (log10 mmHg).
The entry for CCCC[N+](CC)(CCCC)CCCC.CCOS(=O)(=O)[O-] lists melting point 61.6 °C and log vapor pressure -5.32 (log10 mmHg).
The entry for CCCCc1nc(Cl)c(CO)n1Cc1ccc(-c2ccccc2-c2nnn(C(c3ccccc3)(c3ccccc3)c3ccccc3)n2)cc1 lists melting point 158.5 °C and logP (octanol/water) 3.9 and log solubility -6.461 (log10 mol/L) and log vapor pressure -7.084 (log10 mmHg).
The entry for O=P(O)(O)C(Cl)(Cl)P(=O)(O)O lists logP (octanol/water) -2.4 and log solubility -1.516 (log10 mol/L) and plasma fu 0.64.
The entry for CC(C=O)Cc1ccc(C(C)C)cc1 (stereo not drawn) lists melting point -16.6 °C and log solubility -3.46 (log10 mol/L) and log vapor pressure -2.648 (log10 mmHg).
The entry for CCCCCCOC(=O)CC(CC(=O)OCCCCCC)(OC(=O)CCC)C(=O)OCCCCCC lists logP (octanol/water) 4 and log solubility -5.926 (log10 mol/L).

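OPERA's authors assembled the values from existing databases and did not measure them anew. The files give a single number for a compound and property, which may rest on several reports. Conditions of the individual experiments are not part of the data. A value may pool stereoisomers or salt forms, and the file does not say which form was measured. Unmarked limits or estimates from the upstream databases cannot be ruled out.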

Values as listed in the OPERA 2.9 repository of K. Mansouri.